Sequences of proteins named here, by UniProt entry; tags and fusion partners are left off.
ATP-dependent Clp protease proteolytic subunit (Bacillus subtilis (strain 168)), P80244, UniProt P80244, whole entry, looked up: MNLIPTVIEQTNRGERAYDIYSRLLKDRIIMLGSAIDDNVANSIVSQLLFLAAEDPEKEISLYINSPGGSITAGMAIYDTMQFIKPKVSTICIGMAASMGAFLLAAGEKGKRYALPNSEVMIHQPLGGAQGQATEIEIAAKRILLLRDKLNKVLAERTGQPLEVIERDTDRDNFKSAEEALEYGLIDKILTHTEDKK

# Most compounds without a hit are left out; they make up all but 3.7% or so of the library.
# miR-21 FLuc = miR-21 reporter, rising signal | AID 2288 | HeLa miR-21 FLuc reporter, luciferase, 48 h | 340,000 tested, under 10 active | Potency, µM (titrated, usually from 38.3 µM), for the others: at the top dose reporter change, positive = more light; active = well fitted rising curve with a large enough effect; inconclusive = small, poorly fitted or top-dose-only effect; inactive = no such curve, though single readings can be large or run the other way;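 also: % of control where 0% means no effect; miR-21 action dims this reporter so a rising signal means less miR-21 action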
#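 HeLa miR-21-FLuc reporter line, endogenous miR-21; 2000 cells/well in DMEM/10% FBS; compound titration up to ~40uM final, 48 h, 37 degree Celsius; luciferase detection reagent, 15 min lysis, CCD luminescence.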
# Nrf2 activator = activators of Nrf2 (ARE) signaling. AREc32 ARE-luciferase reporter (MCF7-derived line), luminescence, 24 h. Potency, µM (top dose mostly 46.1 µM), without a hit: at the highest dose activation, hits mostly activators. 410,000 tested, 0.31% active. AID 624171; further: potency means the concentration at half of the fitted maximal effect; % of control where 0% means no effect; nearly all actives have a fitted effect of over 65% in size
#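 ARE activation measured as luciferase luminescence (Steady-Glo, 30 min RT) in AREc32_Fluc cells after 24 hr compound exposure at 37 deg C, 5% CO2; cells seeded overnight at 1000/well in OPTI-MEM, 5% FBS.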
# ClpP mod = qHTS Assay for Activators of ClpP; ATP-dependent Clp protease proteolytic subunit (Bacillus subtilis (strain 168)), P80244; purified B. subtilis ClpP, FRET peptide cleavage, 20 min; Potency, µM (top dose mostly 57.5 µM), for inactives: at the top dose activity change, negative = active; 340,000 tested, 1.9% active; active means well fitted falling curve with a large enough effect; inconclusive means small, poorly fitted or top-dose-only effect; inactive means no such curve, though single readings can be large or run the other way; further: potency means the concentration at half of the fitted maximal effect; the source files actives as falling curves though it sought activators and does not explain the sign; nearly all actives have a fitted effect of over 65% in size
#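 ClpP 10 microg/mL final, pH 8 Tris/KCl buffer with BSA, glycerol, Tween-20; compound pinned in; FRET-FV substrate; RT 20 min; Ex320/Em430; ΔFRET vs ADEP 5.8 microM, DMSO, no enzyme.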
# Nrf2 inh = inhibitors of Nrf2 signaling | Potency, µM (top dose mostly 46 µM), inactives show at the highest dose activity change, negative = inhibition, hits mostly inhibitors | 360,000 tested, 2.1% active | A549 ARE-Fluc reporter, luciferase luminescence, 18-24 h; further: potency means the concentration at half of the fitted maximal effect; on the % scale 0 is the no-effect control and ±100 the full control effect; nearly all actives have a fitted effect of over 60% in size
#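 In this cell-based qHTS, ARE-driven firefly luciferase in A549 cells reports Nrf2 activity; the luminescent signal after BugLite lysis is the measured value, with a prior CellTiter-Fluor read for cell health.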
# A549 tox = counter-screen for Nrf2 inhibitors: cytotoxicity in A549 cells; A549 ARE-Fluc cells, CellTiter-Fluor viability, 18-24 h; Potency, µM (titrated, usually from 46 µM), without a hit: at the top dose activity change, negative = cytotoxicity, most hits filed as inhibitors; 390,000 tested, 0.16% active; further: potency means the concentration at half of the fitted maximal effect; on the % scale 0 is the no-effect control and ±100 the full control effect
#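 A549 ARE-Fluc cells in 5% FBS OPTI-MEM, 5000 cells/well, rested 2 h then exposed to compounds in concentration-response for 18-24 h at 37 °C. Viability by CellTiter-Fluor fluorescence (Ex 405/Em 525) after 30 min; luciferase luminescence (BugLite, 15 min, RT) read afterwards.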
# IL-2 act = IL-2 activation; 360,000 tested, 0.065% active; activation, % (series mostly up to about 46 µM); IL-2 activation reporter assay, cell-based qHTS; stimulated with anti-CD3/CD4/CD28 beads; in transgenic mouse T cells; in the data active means activation above about 50%; inconclusive means mostly about 30% to 49%; further: 0% is about no effect
#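 Screening format: compound pinned onto unstimulated transgenic mouse T cells, 60 min incubation, then anti-CD3/anti-CD4/anti-CD28 bead stimulation for 18 hours at 37 degrees C, followed by EGFP and DsRed detection.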
# An asterisk follows results filed as active; ? = inconclusive; · = no result given; [ ] = remark or other dose. Unless noted, the call rests on the fitted dose curve; in most records, active means well fitted curve in the direction sought with a large enough effect; inconclusive means small, poorly fitted or top-dose-only effect, or another doubt; inactive means no such curve, though single readings can be large; an effect the other way counts as inactive or inconclusive.
# The line under a structure holds: miR-21 FLuc	Nrf2 activator	ClpP mod	Nrf2 inh	A549 tox	IL-2 act
1. CCOC(=O)C1=C(CN2CCN(c3ccccc3F)CC2)NC(=O)NC1c1ccc(OC)cc1 (stereo not drawn)
    1.4%	-0.3%	-5.0%	18.4µM*	-21.3%	·
2. CN(C)c1ccc(/C=C2\C=Cc3ccccc32)cc1[N+](=O)[O-]
    ·	·	-0.5%	·	·	·
3. CCN(CC)c1nc(NC2CCN(C)CC2)c2cc(OC)c(OC)cc2n1
    ·	·	4.0%	·	·	·
4. COc1cccc(CNC(=O)c2cc(C)nc3c2c(C)nn3-c2ccc(C)cc2)c1
    12.0%	4.6%	4.8%	-22.1%	3.2%	·
5. COc1ccc(Cc2[nH]n3c(=O)cc(C)nc3c2-c2ccccc2)cc1
    0.0%	0.5%	·	?	-2.7%	0.5
6. COc1ccc(Cc2[nH]n3c(=O)cc(C(C)C)nc3c2-c2ccccc2)cc1
    ?	-0.4%	·	11.6µM*	?	-0.3
7. CCc1ccc(CN(C(=O)c2ccc(OC)cc2)C2CCS(=O)(=O)C2)cc1 (stereo not drawn)
    -13.3%	4.0%	-2.0%	-34.2%	-13.8%	·
8. COc1ccccc1-c1ccc(/C=C2/C=C(CC(C)C)OC2=O)o1
    -7.6%	?	35.5µM*	-8.3%	9.9%	-1.5
9. CCOC(=O)c1[nH]c2ccccc2c1NC(=O)c1ccccc1OC
    25.7%	0.3%	0.4%	6.5%[9.27 µM]	1.9%	·
10. O=C(NCc1ccccn1)c1ccc(COc2ccc(Cl)cc2)o1
    -6.5%	3.7%	-2.2%	23.1µM*	-0.9%	0.6
11. Cc1ccc(C(=O)NCc2ccccn2)o1
    0.3%	-0.5%	-0.5%	-3.4%	-4.4%	-0.1
12. CSC1=NC(C)(C)C=C(/C=C/c2c(Cl)cccc2Cl)N1
    18.7%	?	·	-22.6%	3.7%	2.0
13. CSC1=NC(C)(C)C=C(/C=C/c2ccc(Cl)cc2Cl)N1
    -1.2%	25.1µM*	·	15.8%	3.4%	3.6
14. CSC1=NC(C)(C)C=C(/C=C/c2ccc(Cl)cc2)N1
    16.9%	5.62µM*	·	-1.9%	-0.9%	1.7
15. COc1ccc2c(CNCCc3cccs3)c(C(=O)O)n(Cc3ccccc3C)c2c1
    0.2%	1.0%	?	-0.1%	-5.8%	·
16. Cc1cccc(NC(=O)C2CCCN(S(=O)(=O)c3ccc(Br)s3)C2)c1 (stereo not drawn)
    0.6%	5.4%	5.1%	12.2%	1.6%	·
17. COc1ccc(C=C(c2ccc(OC)cc2)c2ccc(OC)cc2)cc1
    -2.8%	-0.5%	31.6µM*	-4.5%	23.7%	-0.3
18. COc1ccccc1NC(=O)CN1C(=O)C2(SCC(=O)N2c2ccc(C)c(C)c2)c2ccccc21 (stereo not drawn)
    ?	-0.1%	-2.9%	20.6µM*	?	·
19. COc1ccc(OC)c(NS(=O)(=O)c2ccc(NC(=O)C3COc4ccccc4O3)cc2)c1 (stereo not drawn)
    22.3%	0.2%	-1.9%	16.4µM*	-20.1%	-1.9
20. CC1CCCC(C)N1Cc1cn2ccccc2n1 (stereo not drawn)
    -1.2%	0.6%	17.8µM*	1.4%	9.0%	0.8
21. O=C(O)C1CCCCC1C(=O)NCc1cn2ccccc2n1 (stereo not drawn)
    -1.0%	-0.2%	4.5%	-0.1%	-1.7%	-2.3
22. COc1cccc(Cn2ncc3c4sc(S(C)=O)cc4n(C)c3c2=O)c1 (stereo not drawn)
    ·	·	·	-10.1%	9.2%	·
23. O=C(c1ccc(Cl)cc1)N1CCC(c2nc3ccccc3o2)CC1
    -0.8%	0.8%	-1.2%	-17.0%	0.1%	·
24. O=C(Nc1nc(-c2cccs2)c(C(=O)C(F)(F)F)s1)c1ccccc1
    13.7%	0.2%	0.5%	20.6µM*	-19.5%	1.3
25. CCOC(=O)c1cc(-c2ccc(C)cc2)nc2nc(SC)[nH]c(=O)c12
    -10.7%	-0.7%	14.1µM*	-9.4%	-2.6%	-0.1
26. COc1ccc2nc(-c3cccc(F)c3)sc2c1
    ·	·	·	?	9.1%	·
27. COc1ccccc1N1CCN(S(=O)(=O)c2c(C)sc3ncn(CC(=O)Nc4ccccc4F)c(=O)c23)CC1
    -3.3%	-1.1%	-1.0%	7.9%[9.27 µM]	-14.4%	·
28. CCN(CC)C(=O)c1c(NC(=O)c2ccccc2)sc(C)c1C
    -3.8%	2.6%	-3.8%	3.5%	-4.1%	-2.2
29. CCN(CC)Cc1c(NC(=O)c2ccccc2)sc(C)c1C
    -38.3%	11.2µM*	·	20.5%	12.0%	-0.2
30. N#Cc1nc(N2CCCC2)nc(N(c2ccccc2)c2ccccc2)n1
    ·	·	-15.1%	5.2%	-9.3%	·
31. CCCCCCCCCCCCCCCC[n+]1ccc(C)cc1
    ·	·	-0.6%	·	·	·
32. Oc1ccc(CN2CCc3ccccc3C2)c2cccnc12
    ?	3.3%	1.0%	5.8µM*	·	-3.4
33. COc1cc(CN2CCc3ccccc3C2)ccc1O
    ?	5.3%	1.8%	7.31µM*	-10.0%	-0.9
34. COc1cc(CN2CCc3ccccc3C2)cc([N+](=O)[O-])c1O
    -3.4%	0.1%	-3.1%	1.5%	-10.1%	-0.3
35. COc1ccc(COCC(O)CN2CCc3ccccc3C2)cc1OC (stereo not drawn)
    -2.0%	-0.9%	28.2µM*	1.8%	-2.7%	-1.5
36. Oc1ccc(CN2CCCCC2)c2cccnc12
    ?	0.1%	-0.9%	?	?	-3.4
37. CN(C)CCN(Cc1ccccc1)S(=O)(=O)c1ccc2[nH]c(=O)ccc2c1
    -10.3%	2.4%	-12.1%	·	-3.2%	·
38. Cc1ccc(NC(=O)C2CCN(c3nc4ccccc4nc3C(F)(F)F)CC2)cc1F
    23.9%	4.4%	26.0%	-19.1%	-19.1%	·
39. CCCCn1nc2cc(C(=O)NCc3cc(C(F)(F)F)cc(C(F)(F)F)c3)ccc2c1OCC
    -4.1%	-0.5%	3.3%	18.4µM*	-6.1%	-2.1
40. COc1ccc(CC(=O)NCCc2csc(-c3cccc(C)c3)n2)cc1
    -8.0%	1.5%	-4.2%	·	7.8%	·
41. Cc1c(C(=O)N2CCN(c3ncccn3)CC2)sc2nc3n(c(=O)c12)CCCC3
    -2.6%	0.2%	28.2µM*	3.4%	-1.9%	0.2
42. Cc1c(C(=O)Nc2ccc(OC(F)(F)F)cc2)sc2nc3n(c(=O)c12)CCC3
    8.0%	2.9%	41.3%	10.3µM*	-16.7%	0.0
43. O=C1[C@H](Cc2ccccc2)NC/C=C\C[C@@H](c2ccco2)N1Cc1ccccc1
    ·	·	2.3%	·	·	·
44. CCN(CC)c1ccc(/C=C2\C=Cc3ccccc32)cc1
    ·	·	2.1%	·	·	·
45. CCOc1ccc(N(C(=O)c2ccc(OC)cc2)S(=O)(=O)c2ccc3c(c2)n(C)c(=O)n3C)cc1
    -2.7%	0.7%	-2.3%	11.8%	-8.3%	·
46. Cc1nnc2sc(SCC(=O)Nc3ccc(Br)cc3)nn2c1=O
    -7.7%	5.8%	25.1µM*	0.0%	-1.6%	-1.3
47. COc1ccc(NC(=O)CSc2nn3c(=O)c(C)nnc3s2)cc1
    -3.4%	13.7%	1.0%	1.4%	-0.9%	-1.8
